# Results from ChEMBL document CHEMBL1142826, “Structure based approach to the design of bicyclic-1H-isoindole-1,3(2H)-dione based androgen receptor antagonists” (Bioorg Med Chem Lett, 2005).
# The chains behind the UniProt entries cited, without tags or fusion partners. Where a name states a change or a piece, a line headed by the entry shows the natural chain unless it says otherwise.
# UniProt P10275: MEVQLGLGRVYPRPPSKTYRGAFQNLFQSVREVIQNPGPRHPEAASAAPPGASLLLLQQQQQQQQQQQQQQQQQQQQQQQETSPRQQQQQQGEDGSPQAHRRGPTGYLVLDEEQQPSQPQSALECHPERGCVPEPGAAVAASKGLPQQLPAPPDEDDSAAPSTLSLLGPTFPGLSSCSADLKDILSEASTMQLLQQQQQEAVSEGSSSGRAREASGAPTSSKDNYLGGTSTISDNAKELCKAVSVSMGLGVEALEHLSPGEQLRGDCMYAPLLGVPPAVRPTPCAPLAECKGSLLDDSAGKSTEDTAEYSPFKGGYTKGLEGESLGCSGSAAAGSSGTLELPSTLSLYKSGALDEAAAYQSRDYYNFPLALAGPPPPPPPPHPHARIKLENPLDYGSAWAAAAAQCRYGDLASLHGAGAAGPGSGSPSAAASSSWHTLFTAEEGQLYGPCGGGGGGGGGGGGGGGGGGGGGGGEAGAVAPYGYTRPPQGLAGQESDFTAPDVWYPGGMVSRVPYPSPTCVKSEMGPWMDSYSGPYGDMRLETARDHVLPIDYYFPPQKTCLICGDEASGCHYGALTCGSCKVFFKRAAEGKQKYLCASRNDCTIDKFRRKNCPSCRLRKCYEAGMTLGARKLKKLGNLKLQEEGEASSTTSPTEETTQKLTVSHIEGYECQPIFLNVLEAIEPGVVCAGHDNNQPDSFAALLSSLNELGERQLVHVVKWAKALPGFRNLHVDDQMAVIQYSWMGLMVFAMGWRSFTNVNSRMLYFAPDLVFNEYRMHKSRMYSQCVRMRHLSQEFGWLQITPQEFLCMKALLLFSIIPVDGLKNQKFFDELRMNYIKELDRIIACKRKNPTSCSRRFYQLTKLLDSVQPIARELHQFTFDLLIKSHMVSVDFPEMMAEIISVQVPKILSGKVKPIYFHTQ
# Target: Androgen receptor (Homo sapiens, UniProt P10275)
# Assay: Binding affinity for androgen receptor in human MDA-453 cells
row,SMILES,Ki
1,Cc1cc(N2C(=O)[C@@H]3C4C=CC(CC4)[C@@H]3C2=O)ccc1Br,171 nM
2,O=C1[C@@H]2C3C=CC([C@H]4C[C@@H]34)[C@@H]2C(=O)N1c1cccc(C(F)(F)F)c1,3200 nM
